According to US6448377B1, “Modified G protein sunbunits” (The Board of Trustees of the Leland Stanford Junior …, priority 2000, dated 2002):
Values belong to the molecule of their own block, whether it stands above or below them.

Columns and labels:
[1] = biological target: β2 adrenoceptor, tagged at the amino-terminus with the FLAG epitope (UniProt P07550); assay: cell-based or functional assay
β2 AR = biological target: T1, β2 AR (Homo sapiens, UniProt P07550); assay: [35S]GTPγS binding in membranes coexpressing β2 AR and Gsα or tetGsα; type: biochemical; settings: large excess of Gsα
T1 construct: expressed in transfected cells; host or cells: Sf9 insect cells (baculovirus infection), membrane preparation
Procedure: Membranes were pelleted by a 15 min centrifugation at 4 C. and 15000 g and resuspended in binding buffer. Sf9 membranes (10 μg of protein/tube) were suspended in 500 μL of binding buffer supplemented with 0.05% (w/v) BSA, 1 nM [^35S]GTPγS (0.25 uCi/tube), GDP (1 μM) with or without isoproterenol (10 μM). Incubations were performed at 25 C. and shaking at 200 rpm. Nonspecific binding was determined in the presence of 10 μM GTPγS and was less than 0.2% of total binding. Bound [^35S]-GTPγS was separated from free [^35S]GTPγS by filtration through GF/C filters, followed by three washes with 3 mL of cold binding buffer. Filter-bound radioactivity was determined by liquid scintillation counting.

β2 adrenoceptor = biological target: T2, β2 adrenoceptor (Homo sapiens, UniProt P07550); assay: [3H]DHA competition binding with isoproterenol in Sf9 membranes coexpressing β2 adrenoceptor and Gsα or tetGsα; settings: isoproterenol competition with 1 nM [3H]DHA, without or with 10 μM GTPγS
T2 construct: expressed in transfected cells; host or cells: Sf9 insect cells (baculovirus infection), membrane preparation
Procedure: Competition binding of [^3H]DHA (1 nM) with varying concentrations of isoproterenol in Sf9 membranes coexpressing β2 AR and either wild-type Gsα (FIG. 2) or tetGsα (FIG. 3). Membrane proteins (15-20 μg/tube) from infected Sf9 insect cells were suspended in 500 μL of binding buffer (75 mM Tris/HCl, pH 7.4, 12.5 mM MgCl2, and 1 mM EDTA), supplemented with 10 nM [^3H]DHA and 0.2% (w/v) BSA to determine β2 adrenoceptor expression level. Nonspecific binding was assessed in the presence of 10 μM (−)-alprenolol. Incubations were performed for 60 min at 25° C. with shaking at 200 rpm. Competition binding experiments were carried out with 1 nM [^3H]DHA in the presence of isoproterenol at various concentrations without or with GTPγS (10 μM) as described elsewhere (Seifert, R. et al., (1998) J. Biol. Chem. 273: 5109-16; Seifert, R. et al., (1998) Eur. J. Biochem. 255: 369-382). Expression levels of β2 adrenoceptor in FIGS. 2 and 3 are 7.4 and 4.8 pmol/mg, respectively. Data are expressed as percent of basal bound [^3H]DHA. Data shown are the mean ±SD of three independent experiments performed in triplicate.

- GTPγS-sensitive high-affinity agonist binding sites [1]: 30%
Molecule: wild-type Gsα (α subunit of the stimulatory G-protein)

- β2 adrenoceptor-stimulated GTPγS binding (β2 AR): very little
- GTPγS-sensitive high-affinity agonist binding sites for the β2 AR (β2 adrenoceptor): Approximately 30%
B1: Gsα: α subunit of the stimulatory G-protein, wild-type (protein, UniProt P63092 2-394, looked up)
Guanine nucleotide-binding …: GCLGNSKTEDQRNEEKAQREANKKIEKQLQKDKQVYRATHRLLLLGAGESGKSTIVKQMRILHVNGFNGEGGEEDPQAARSNSDGEKATKVQDIKNNLKEAIETIVAAMSNLVPPVELANPENQFRVDYILSVMNVPDFDFPPEFYEHAKALWEDEGVRACYERSNEYQLIDCAQYFLDKIDVIKQADYVPSDQDLLRCRVLTSGIFETKFQVDKVNFHMFDVGGQRDERRKWIQCFNDVTAIIFVVASSSYNMVIREDNQTNRLQEALNLFKSIWNNRWLRTISVILFLNKQDLLAEKVLAGKSKIEDYFPEFARYTTPEDATPEPGEDPRVTRAKYFIRDEFLRISTASGDGRHYCYPHFTCAVDTENIRRVFNDCRDIIQRMHLRQYELL
